Measured affinities in a library of Ab-14 heavy chain variants

Target peptide (SARS-CoV-2 spike, HR2 region): PDVDLGDISGINAS

Parent scFv Ab-14: VH joined to VL by a 15-residue (Gly4Ser)3 linker. Changes lie in the heavy chain CDRs alone.
VH: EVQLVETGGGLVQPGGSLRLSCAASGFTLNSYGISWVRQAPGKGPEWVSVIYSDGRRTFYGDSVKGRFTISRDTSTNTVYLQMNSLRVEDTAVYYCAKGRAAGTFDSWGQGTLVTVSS
VL: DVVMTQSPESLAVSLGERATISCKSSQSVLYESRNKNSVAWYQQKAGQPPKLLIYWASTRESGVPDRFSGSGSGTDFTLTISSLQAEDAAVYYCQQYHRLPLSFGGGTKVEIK

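The parent was found by panning a naive human phage display library on the peptide. Designed CDR sequences, proposed from the first random library and measured here. Several design methods are mixed in this list. AlphaSeq pools MATa yeast showing the antibodies with MATalpha yeast showing the peptide. Pairs that bind mate more often; barcode pairs of the diploids are counted by sequencing. A regression on co-assayed BCL2-family reference pairs converts the normalised counts of each replicate to an apparent Kd. The assay was run in six technical replicates.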

The parent's heavy chain CDRs are GFTLNSYGIS, VIYSDGRRTFYGDSVK, GRAAGTFDS; each variant's own CDRs replace them letter for letter.
Variants here have at most six changes.
Kd is apparent (estimated from mating counts) and averaged on the log scale over replicates with a signal. Smaller is tighter.
"nd" marks a missing value. The strain was present, yet no cells mated with the target were sequenced in any replicate, which points to weak or no binding.
Order: sorted from the lowest average up, undetected variants last.
Nonspecific signal, from three strains lacking the peptide, appeared in 1% of pairings of all heavy chain designs, centred on 120 nM (5% of these signals below 7.0 nM); values are not corrected for it.

| CDR-H1 | CDR-H2 | CDR-H3 | apparent Kd | replicates with signal |
|---|---|---|---|---|
| TFTLNDYGIS | VIYSDGRRTFYGDSVK | GRAALDFIS | 230 pM | 6 of 6 |
| GFQLNEYGIS | VIYSDGRRTFYGDDVK | GRTAGTFDS | 410 pM | 6 of 6 |
| GFDLNSYGIS | VIYSDGRRTFYIDSVK | GKTAGTFDS | 1.1 nM | 6 of 6 |
| GFTLNEYGIS | VIYSDGERTFYADSVK | GRAAGTFDS | 1.2 nM | 6 of 6 |
| GFDLNSYGIS | VIYSDGRRTFYADSVK | GRAAGTFDV | 1.2 nM | 6 of 6 |
| GFNLNSYGIS | VIYSDGRRTAYGDSVK | GRTAGTFDS | 1.4 nM | 5 of 6 |
| GFDLNSYGIS | VIYSDGMRTFYIDSVK | GRTAGTFDS | 1.5 nM | 6 of 6 |
| MFDLNSYGIS | VIYSDGRRTFYIDSVK | GNAAGTFDS | 1.6 nM | 1 of 6 |
| GFSLNSYGIS | VIYSDGRRTFYSDSVK | GRTAGTFDS | 1.6 nM | 6 of 6 |
| GFDLNSYGIS | VIYSDGRRTFYQDSVK | GAAAGTFDS | 1.6 nM | 6 of 6 |
| GFDLNSYGIS | VIYSDGMRTFYADSVK | GRQAGTFDS | 1.7 nM | 6 of 6 |
| GFDLNEYGIS | VIYADGRRTFYIDSVK | GTAAGTFDM | 1.7 nM | 6 of 6 |
| GFTLDSYGIS | VIYSDGRRTFYGDSVK | GIAAGTFDS | 1.8 nM | 6 of 6 |
| GFLLNDYGIS | VIYSDGRRTFYKDSVK | GRTAGTFDS | 1.9 nM | 6 of 6 |
| GFDLNSYGIS | VIYSDGRRTFYSDSVK | GDAAGTFDS | 2.2 nM | 6 of 6 |
| HFNLNSYGIS | VIYSDGRRTFYADSVK | GRQAGTFDS | 2.7 nM | 6 of 6 |
| GFELNSYGIS | VIYSDGRRTFYGDDVK | GVTAGTFDS | 2.8 nM | 6 of 6 |
| GFTLNEYGIS | VIYSDGRRTFYTDSVK | GAFAGTFDS | 3.2 nM | 6 of 6 |
| GFELNMYGIS | VIYSDGRRTFYADSVK | GQAAGTFDS | 3.7 nM | 6 of 6 |
| GFGLNSYGIS | VIYSDGRRTFYGDQVK | GQTAGTFDS | 4.7 nM | 6 of 6 |
| GFDLNEYGIS | VIYSDGRRTFYHDSVK | GRFAGTFDS | 5.3 nM | 5 of 6 |
| GFTLNDYGIS | VIYSDGRRTFYTDSVK | GRFAGTFDS | 5.6 nM | 6 of 6 |
| GFSLNSYGIS | VIYSDGRRTFYGDAVK | GQTAGTFDS | 5.9 nM | 6 of 6 |
| GFTLNEYGIS | VIYSDGRRTFYGDSVK | GRYAGTFDS | 7.0 nM | 6 of 6 |
| GFTLNSYGIS | VIYSDGRRTYYGDDVK | GRFAGTFDL | 7.7 nM | 4 of 6 |
| GFTINDYGIS | VIYSDGRRTFYGDSVK | GRAAGTFDS | 8.3 nM | 6 of 6 |
| GFGLNSYGIS | VIYSDGRRTFYGDSVK | GRTAGTFDT | 11 nM | 6 of 6 |
| GFTLNSYGIS | VIYSDGIRTFYHDSVK | GRQAGTFDS | 16 nM | 6 of 6 |
| GFTLNSYGIS | VIYSDGRRTFYGDSVK | GKVAGTFDT | 16 nM | 6 of 6 |
| RFTLNSYGIS | VIYSDGRRTFYQDSVK | GKAAGTFSS | 21 nM | 1 of 6 |
| YFSLNEYGIS | VIYSDGKRTFYGDSVK | GRTAGTFDS | 23 nM | 2 of 6 |
| GFTLNSYGIS | VIYSDGRRTFYGDDVK | GWAAGTFDS | 24 nM | 2 of 6 |
| GFTLNEYGIS | VIYSDGRRTFYTDSVK | GRFAGTFRS | 25 nM | 1 of 6 |
| GFHLNEYGIS | VIYSDGRRTFYGDSVK | GQTAGTFDS | 27 nM | 6 of 6 |
| GFTLNSYGIS | VIYSDGRRTFYADSVK | DRAAGCFDD | 29 nM | 1 of 6 |
| GFSLNSYGIS | VIYSDGRRTFYKDDVK | GRTAGTFDS | 30 nM | 6 of 6 |
| PFELNSYGIS | VIYADGRRTFYGDSVK | GKAAGTFDV | 34 nM | 5 of 6 |
| GFTLNSYGIS | VIYSDGRRTFYSDSVK | GTAGGTFDV | 38 nM | 5 of 6 |
| GFGLNSYGIS | VIYSDGRRTFYQDSVK | GQAAGTFDS | 41 nM | 6 of 6 |
| GFSLNMYGIS | VIYSDGRRTMYIDSVK | GRAAGTFDS | 47 nM | 5 of 6 |
| GFTLNSYGIS | VIYSDGMRTYYGDSVK | GRAAGTFDS | 50 nM | 3 of 6 |
| GFTLESYGIS | VIYSDGRRTFYADPVK | GRAAGTFDK | 84 nM | 5 of 6 |
| GFELNSYGIS | VIYSDGRRTFYGDSVK | GSAAGTFDL | 95 nM | 5 of 6 |
| GFSLNSYGIS | VIYSDGRRTFYTDSVK | GRTAGTFDS | 190 nM | 5 of 6 |
| KFTLNSYGIS | VIYSDGRRTFYRDSVK | GQTAGTFDS | 190 nM | 2 of 6 |
| RFDLNSTGIS | VIYSDGRRTFYGDSVK | GRAAGWFNS | 2.4 µM | 2 of 6 |
| GFTLNEYGIS | VIYSDGRRNFYGDSHK | GRAAVTSDQ | nd | 0 of 6 |
| GFTLNSYGIS | VIYSDGRRTFYGDSVK | GRAAGTFDG | nd | 0 of 6 |
| GFSLNDYGIS | VIYSDGRRTFYGDSVK | GRAAGTFFS | nd | 0 of 6 |
| GFTLSSYGIS | VIYSDGRRTFYGDSVK | GEMAGTFAQ | nd | 0 of 6 |
| GFTLNEYGIS | VIYSDGRRTFYGDSVK | GRAAGTFWL | nd | 0 of 6 |
| GFTLNNYGIS | VIYSDGRRTFYGDSVK | KRAGGTFES | nd | 0 of 6 |
| GFDLNSYGIS | VIYSDGRRTFYGDSVK | GNAAGTFDT | nd | 0 of 6 |
| GFTLNSYGIS | VIYSDGRRTFYADSVK | GRAKIVFDS | nd | 0 of 6 |
| GFDLKSYGIS | VIYSDGRRTAYGDSVK | GFAAGTFPS | nd | 0 of 6 |
| GFTLNSYGIS | VIYSDGMRTFYGDSVK | GMAAGTFES | nd | 0 of 6 |
| GFTLNEYGIS | VIYSDGRRTFYHDSVK | GRAAGMFDS | nd | 0 of 6 |
| GFTLNEYGIS | VIYSDGRRTFYGDSVK | GRAAGTFCV | nd | 0 of 6 |
| GFTLDSYGIS | VIYSDGRRTFYGDSVK | GYAAGTALS | nd | 0 of 6 |
| GFTLNSYGIS | VIYADGRRTFYGPSVK | GRAAGTYKS | nd | 0 of 6 |
| GFTLNSYGIS | VIYSDGRRTFYGDSVK | GRAAWTFVS | nd | 0 of 6 |
| GFTLNSYGIS | VIYSDGRRTFYGDSVS | VRNAGTFDS | nd | 0 of 6 |
| GFTLNSYGIS | VIYSDGRRTQYSDSVK | GRAGGTFDS | nd | 0 of 6 |
| GFTLNSYGIS | VIYSDGRRTFYGDFVK | GRAGGTFDL | nd | 0 of 6 |

A sequence measured in both rounds can read differently, since the two assays cover different ranges.
The authors averaged sequences with at least three values out of six and counted those with two or fewer as poor binders.
The parent sequence was in this pool as ten entries: three were never detected, three once, and four in most replicates, with averages from 2.2 nM to 240 nM.

From the AlphaSeq antibody data of Li et al. 2023 (doi:10.1038/s41467-023-39022-2), copy in the FLAb collection.